Laboratory results reported in the supplement of paper PMC5579334.

Legend:
HS-PSS [1] = test: drug sensitivity score (DSS, CellTiter-Glo viability, 72 h) (DSS (dimensionless)); higher = more sensitive; extreme values may be limits of the assay
Procedure, shortened: (§1)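 Viability of MPNST cell lines and primary human Schwann cells was read as CellTiter-Glo ATP luminescence after 72 h at 37 °C, 5% CO2, in 384-well plates seeded with 750–1000 cells per well. Each compound had been preprinted at five concentrations in 10-fold steps. Signals were scaled between vehicle and positive-control wells, duplicates averaged where present, and fitted with four-parameter logistic curves. Drug sensitivity score and relative IC50 (censored at the top concentration) come from those fits, and percent inhibition is taken at the top concentration.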

HS-Sch-2 [2] = test: as above
Procedure, shortened: as §1

YST-1 [3] = test: as above
Procedure, shortened: as §1

HS-PSS [4] = test: drug sensitivity score (DSS, CellTox-Green cytotoxicity, 72 h) (DSS (dimensionless)); higher = more cytotoxic; extreme values may be limits of the assay
Procedure, shortened: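 MPNST cell lines and primary human Schwann cells were grown for 72 h at 37 °C in 384-well plates containing five 10-fold compound dilutions. CellTox-Green, added before seeding at a final 1:1000 dilution, gave fluorescence from DNA released by disrupted cells, and signals were scaled to vehicle and positive-control wells. Curves were fitted with a four-parameter logistic model. Drug sensitivity score and relative IC50 come from these fits, with IC50 censored at the top concentration.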

HS-PSS [5] = test: % inhibition of CellTiter-Glo viability at highest tested concentration (72 h), relative to DMSO and benzethonium chloride controls; higher = more inhibition
Procedure, shortened: as §1

HS-Sch-2 [6] = test: as above
Procedure, shortened: as §1

YST-1 [7] = test: as above
Procedure, shortened: as §1

Molecule NCc1ccc(OCCCc2sc(-c3ccc4c(c3)/C(=N/Nc3nc5ccccc5s3)CCC4)nc2C(=O)O)cc1 [WEHI-539] (max concentration tested 2500 nM) has a drug sensitivity score (HS-PSS [1]) of 0.33, a drug sensitivity score (HS-Sch-2 [2]) of 0.37 and a drug sensitivity score (YST-1 [3]) of 1.43. For the same molecule, the drug sensitivity score (HS-PSS [4]) was 0.07, the “% inhibition” value (HS-PSS [5]) was 16.4% and the “% inhibition” value (HS-Sch-2 [6]) was 8.73%. For the same molecule, the “% inhibition” value (YST-1 [7]) was 19.2%.
